Earlier results on one molecule are cited in publication PMC6746264, “Novel tyrosinase inhibitory peptide with free radical scavenging ability” (Journal of Enzyme Inhibition and Medicinal Chemistry, 2019).

Structures are written as SMILES.

For the data set, the system named is hepatocytes and melanocytes. The settings on record: metabolite of hydroquinone; cited from earlier work. From the text:
However, the adverse side effects associated with their use have led to restrictions in their applications.

As to `O=C1C=CC(=O)C=C1` [benzoquinone], the cytotoxicity result is “cytotoxic to hepatocytes and melanocytes”.
